RAM network inhibition data for 1 compound are collected here from PubChem BioAssay AID1298 (SRMLSC, 2008).

This is a selection; strong and weak results do not stand in their true shares. Activity calls are given as the source filed them.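 Rule for the calls: active = RAM network inhibition above 8.4% in each of two replicates, 3 SD over the compound average; inconclusive = above 8.4% inhibition in only one replicate; inactive = 8.4% inhibition or less in each replicate.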

This assay can be described thus: RAM signaling pathway blockade in yeast – S. cerevisiae, Pdr1DBD-CYC8 efflux-inhibited sensitized strain, primary screen (AID 1298).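 Note: 0% = DMSO untreated cells without growth and 100% = 10 µM 1-NA-PP1 full growth; higher means more yeast growth rescued from 5-FOA killing.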 The note with it: S. cerevisiae cbk1-as DSE1-URA3 strain, 5-FOA growth OD615, 2 d; at 50 µM; hits give high values.
In the case of `COC(=O)c1cc2c(s1)N=C(c1ccccc1)N(C)P2(=O)N1CCOCC1` (stereo unspecified), the RAM network inhibition was inactive: 3.37%.
